From PubChem BioAssay AID1199 (EPA DSSTox, 2008)
Activity calls are given as the source filed them.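 The calls were made as follows: active = a tumour-causing dose and a tumour site recorded for mice in at least one sex group; inconclusive = only government mouse studies exist and were judged inadequate; inactive = mouse studies exist but none gave tumours.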

Tested on: mouse carcinogenicity bioassay, TD50 from CPDB
Experiment: DSSTox (CPDBAS) Carcinogenic Potency Database Summary Mouse Bioassay Results
Settings: for outcome: TD50_Mouse_Note: no positive results, TargetSites_Mouse_Female: no positive results
Text: The Carcinogenic Potency Database (CPDB) is a unique and widely used international resource of the results of over 6500 chronic, long-term animal cancer tests on over 1500 chemical substances. The CPDB provides easy access to the bioassay literature, with qualitative and quantitative analyses of both positive and negative experiments that have been published over the past 50 years in the general literature and by the National Cancer Institute/National Toxicology Program. The CPDB standardizes the diverse literature of cancer bioassays that vary widely in protocol, histopathological examination and nomenclature, and in the published author's choices of what information to provide in their papers. Results are reported in the CPDB for tests in rats, mice, hamsters, dogs, and nonhuman primates, and are based on the most positive result among all experiments for each sex-species. The DSSTox CPDBAS (all species) file incorporates data from the CPDB Summary Tables for the full list of over 1500 chemical substances tested in at least one species. Summary bioassay results for Mouse (TD50, tumor sites, male, female, both sexes) are provided in the CPDB Summary Tables and the DSSTox CPDBAS file for over 1000 chemical substances.
TD50 is a standardized quantitative measure of carcinogenic potency (analogous to an LD50) and is reported in the CPDB Summary Table for each species. Activity Score for actives is computed by mapping of LOG10 (1/TD50_Mouse_mmol) activity values spanning range [MIN, MAX] onto Integer 1-100 Activity Score range, where 100 is highest potency and 1 is lowest: Activity Score = 100 * INTEGER[(log10(1/Activity) - MIN)/(MAX […] MIN)]. If activity is reported but no TD50_Mouse_mmol value is computed, such as for a mixture, the Activity Score is assigned the activity value "50". […] Target sites are reported for each sex-species group with a positive result in the CPDB on the basis of a positive author's opinion for the particular site, using all results from both the general literature and NCI/NTP bioassays. If a chemical has two or more target sites listed, the results may be from different experiments, and a single site may be a target organ in more than one experiment, as well. Blank entry in TargetSites field indicates no results reported.

**Q.** With `CN(N=O)C(=N)N[N+](=O)[O-]` as the compound, how does the Potency (TargetSites_Mouse_Female: small intestine) read?
**A.** Its Potency is 0.0138 mmol/kg/day.

**Q.** For `CCN(N=O)C(=N)N[N+](=O)[O-]`, which Potency (TargetSites_Mouse_BothSexes: esophagus, small intestine) is on record?
**A.** The Potency was 0.0176 mmol/kg/day.

**Q.** How did the Potency (TD50_Mouse_Note: TD50 is harmonic mean of more than one positive test, harmonic mean of TD50 includes a value for the upper 99% confidenc, TargetSites_Mouse_Female: lung) turn out when `C1CN1` was run?
**A.** Its Potency is 0.00875 mmol/kg/day.

**Q.** For `COP(=O)(OC)N1CCOCC1`, which outcome is on record?
**A.** Its outcome is “inactive; no positive results”.

**Q.** How did the Potency (TD50_Mouse_Note: TD50 is harmonic mean of more than one positive test, greater than ten-fold variation among TD50 values for positive res, TargetSites_Mouse_Female: hematopoietic system, liver, small intestine, stomach, vascular system) turn out when `O=C1C2CC=CCC2C(=O)N1SC(Cl)(Cl)C(Cl)Cl` (stereo unspecified) was run?
**A.** The Potency was 0.51 mmol/kg/day.

**Q.** How did the outcome turn out when `C[As](=O)(O)O` was run?
**A.** The outcome was “inactive; no positive results”.
